This is an account of results in paper PMC7587356, “High-Throughput Screening for Inhibitors of the SARS-CoV-2 Protease Using a FRET-Biosensor” (Molecules, 2020).

Structures can show the parent of a compound that is named as a salt. Where two headings read alike, the source gives them in different places.

The target of assay [1] is T1, SARS-CoV-2 3CLpro (Severe acute respiratory syndrome coronavirus 2, UniProt P0DTD1).
For assay [2], the target named is T1, SARS-CoV-2 3CLpro. In words: biochemical. The following applies: 4 h.
Assay [3] concerns the target T1, SARS-CoV-2 3CLpro. In words: biochemical.
[4] abbreviates: read-out: Replicate_1 (LOPAC_screen_w_protease).
[5] abbreviates: read-out: Replicate_2 (LOPAC_screen_w_protease).

Consider `C[C@H]1C[C@H]2[C@@H]3CCC4=CC(=O)C=C[C@]4(C)[C@@]3(F)[C@@H](O)C[C@]2(C)[C@@]1(O)C(=O)CO` [Betamethasone], for which the “mean (LOPAC_screen_w_protease)” value in assay [1] amounted to 2.104. For the same compound, the values for the inhibition at 5 µM in assay [2] (setting [4]) and in assay [2] (setting [5]) were 1.35% and 2.86%, respectively.
On to `C[N+](C)(C)CC=O` [Betaine aldehyde chloride], for which the “mean (LOPAC_screen_w_protease)” value in assay [1] is 1.378. The inhibition at 5 µM is 0.633% in assay [2] (setting [4]) and 2.12% in assay [2] (setting [5]).
On to `NC(CO)C(=O)NNCc1ccc(O)c(O)c1O` (stereo not drawn) [Benserazide], for which the “Ratio (A/B)” value in assay [3] is on record as 1.8. In addition, the EC50 in assay [3] (with 0.01% Triton X-100; mean ± SD of triplicate; 4 h, 30 °C; read-out: A) EC50 with Triton X-100) was found to be 2.11 ± 0.303 µM; in assay [3] (without Triton X-100; mean ± SD of triplicate; 4 h, 30 °C; read-out: B) EC50 without Triton X-100), 1.19 ± 0.202 µM.
`CC(CCc1ccccc1)NCC(O)c1ccc(O)c(C(N)=O)c1` (stereo not drawn) [Labetalol hydrochloride]: the “mean (LOPAC_screen_w_protease)” value in assay [1] stood at 1.52. Moreover, the inhibition at 5 µM was 1.53% in assay [2] (setting [4]) and 1.51% in assay [2] (setting [5]).
In the same order, the values of `NC(=O)c1ncn([C@@H]2O[C@H](CO)[C@@H](O)[C@H]2O)n1` [Ribavirin] are 1.951, 2.8% and 1.1%.
Regarding `CO/N=C(\C(=O)N[C@@H]1C(=O)N2C(C(=O)O)=C(CSc3nc(=O)c(=O)[nH]n3C)CS[C@H]12)c1csc(N)n1` [Ceftriaxone sodium], in assay [1], the “mean (LOPAC_screen_w_protease)” value is 2.1257. Further, the results for the inhibition at 5 µM in assay [2] (setting [4]) and in assay [2] (setting [5]) were 1.37% and 2.88%, respectively.
In the same order, the values of `CN1Cc2c(N)cccc2C(c2ccccc2)C1` (stereo not drawn) [Nomifensine maleate] are 1.94, 3.97% and -0.0859%.
Turning to `N[C@@H](Cc1ccc(N(CCCl)CCCl)cc1)C(=O)O` [Melphalan], the “mean (LOPAC_screen_w_protease)” value in assay [1] came to 1.588. The inhibition at 5 µM stood at 2.15% in assay [2] (setting [4]) and 1.03% in assay [2] (setting [5]).
For `CN(C)CC[C@@H](c1ccc(Cl)cc1)c1ccccn1` [(+)-Chlorpheniramine maleate] the same measures were 1.673, 2.03% and 1.32%.
On to `CCN(CC)CC(=O)Nc1c(C)cccc1C` [Lidocaine hydrochloride], for which, in assay [1], the “mean (LOPAC_screen_w_protease)” value turned out to be 1.695. Also, the figures for the inhibition at 5 µM in assay [2] (setting [4]) and in assay [2] (setting [5]) were 2.11% and 1.28%, respectively.
For `CC(=O)N1CCN(c2ccc(OCC3COC(Cn4ccnc4)(c4ccc(Cl)cc4Cl)O3)cc2)CC1` (stereo not drawn) [Ketoconazole], in assay [1], the “mean (LOPAC_screen_w_protease)” value worked out at 1.861. The inhibition at 5 µM in assay [2] (setting [4]) turned out to be 2.9%; in assay [2] (setting [5]), 0.821%.
For `Cn1c(=O)c2[nH]cnc2n(C)c1=O` [Theophylline] the same measures were 1.763, 2.3% and 1.23%.
